Source: patent publication US7749984B2, “Computer-based model for identification and characterization of non-competitive inhibitors of nicotinic acetylcholine receptors and related ligand-gated ion channel receptors” (priority 2003, dated 2010)

Sequences of proteins named here, by UniProt entry; tags and fusion partners are left off. Residues count along the entry.
UniProt P04757, 26-499 limits assumed: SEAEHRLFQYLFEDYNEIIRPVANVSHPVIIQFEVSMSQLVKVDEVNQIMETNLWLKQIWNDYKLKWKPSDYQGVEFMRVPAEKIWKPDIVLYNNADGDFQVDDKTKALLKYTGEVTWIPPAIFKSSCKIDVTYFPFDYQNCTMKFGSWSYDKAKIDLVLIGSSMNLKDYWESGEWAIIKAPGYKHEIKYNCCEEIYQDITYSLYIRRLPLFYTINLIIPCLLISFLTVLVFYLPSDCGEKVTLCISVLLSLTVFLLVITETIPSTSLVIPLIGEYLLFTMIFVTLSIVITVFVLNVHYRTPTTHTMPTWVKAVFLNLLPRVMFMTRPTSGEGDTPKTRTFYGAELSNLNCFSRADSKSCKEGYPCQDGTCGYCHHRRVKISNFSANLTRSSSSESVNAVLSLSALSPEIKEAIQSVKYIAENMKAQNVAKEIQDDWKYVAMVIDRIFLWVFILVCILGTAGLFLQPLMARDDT
UniProt P12392, 21-495 limits assumed: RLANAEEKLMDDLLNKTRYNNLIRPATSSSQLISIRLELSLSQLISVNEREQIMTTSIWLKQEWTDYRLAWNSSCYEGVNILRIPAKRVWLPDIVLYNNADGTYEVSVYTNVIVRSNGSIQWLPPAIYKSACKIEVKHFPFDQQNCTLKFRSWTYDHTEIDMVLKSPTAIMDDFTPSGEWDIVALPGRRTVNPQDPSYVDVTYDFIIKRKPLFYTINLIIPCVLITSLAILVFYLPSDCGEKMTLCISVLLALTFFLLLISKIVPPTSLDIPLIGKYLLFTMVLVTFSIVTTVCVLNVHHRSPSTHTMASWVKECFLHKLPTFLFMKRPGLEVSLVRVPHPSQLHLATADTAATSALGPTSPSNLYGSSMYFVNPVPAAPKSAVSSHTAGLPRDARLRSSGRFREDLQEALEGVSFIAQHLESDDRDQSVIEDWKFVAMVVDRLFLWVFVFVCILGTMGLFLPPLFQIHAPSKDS

Target: α3β4 nAChR (Rattus norvegicus, UniProt P04757+P12392)
Details: for k′(NLC) retention capacity factor: 10 μM, 20 μl injected, ammonium acetate 10 mM pH 7.4/methanol 85:15; for koff dissociation constant rate / log K chromatographic equilibrium constant: NLC

COc1cc(C(C#N)(CCCNCCc2ccc(OC)c(OC)c2)C(C)C)ccc1O (stereo not drawn)
k′(NLC) retention capacity factor: 99.29 | koff dissociation constant rate: 0.53 s⁻¹ | log K chromatographic equilibrium constant: 7.48 M^−1

CNCCCC(C#N)(c1ccc(O)c(OC)c1)C(C)C (stereo not drawn)
k′(NLC) retention capacity factor: 19.42 | koff dissociation constant rate: 2.52 s⁻¹ | log K chromatographic equilibrium constant: 6.63 M^−1
